Laboratory results: US11318157B2, “6-6 bicyclic aromatic ring substituted nucleoside analogues for use as PRMT5 inhibitors” (Janssen Pharmaceutica NV, priority 2015, dated 2022)

Protein sequences, listed by entry. Tags and fused reporters are not part of them.
UniProt O14744, whole entry: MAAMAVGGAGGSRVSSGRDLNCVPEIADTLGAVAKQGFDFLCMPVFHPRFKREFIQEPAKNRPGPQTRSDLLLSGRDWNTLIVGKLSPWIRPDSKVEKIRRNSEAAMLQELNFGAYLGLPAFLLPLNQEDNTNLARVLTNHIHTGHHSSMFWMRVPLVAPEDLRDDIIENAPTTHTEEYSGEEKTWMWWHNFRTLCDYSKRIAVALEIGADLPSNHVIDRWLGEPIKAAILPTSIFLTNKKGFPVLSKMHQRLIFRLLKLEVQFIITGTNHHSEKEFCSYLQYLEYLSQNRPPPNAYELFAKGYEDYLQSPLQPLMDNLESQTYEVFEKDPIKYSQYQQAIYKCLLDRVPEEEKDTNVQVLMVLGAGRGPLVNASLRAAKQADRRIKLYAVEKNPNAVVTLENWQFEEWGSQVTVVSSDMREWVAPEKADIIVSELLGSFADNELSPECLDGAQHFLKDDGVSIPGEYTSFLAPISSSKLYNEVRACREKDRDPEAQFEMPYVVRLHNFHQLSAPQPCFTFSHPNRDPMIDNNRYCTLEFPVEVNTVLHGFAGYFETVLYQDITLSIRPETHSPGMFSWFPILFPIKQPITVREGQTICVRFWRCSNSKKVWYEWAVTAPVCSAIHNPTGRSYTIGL
UniProt Q9BQA1, whole entry partner: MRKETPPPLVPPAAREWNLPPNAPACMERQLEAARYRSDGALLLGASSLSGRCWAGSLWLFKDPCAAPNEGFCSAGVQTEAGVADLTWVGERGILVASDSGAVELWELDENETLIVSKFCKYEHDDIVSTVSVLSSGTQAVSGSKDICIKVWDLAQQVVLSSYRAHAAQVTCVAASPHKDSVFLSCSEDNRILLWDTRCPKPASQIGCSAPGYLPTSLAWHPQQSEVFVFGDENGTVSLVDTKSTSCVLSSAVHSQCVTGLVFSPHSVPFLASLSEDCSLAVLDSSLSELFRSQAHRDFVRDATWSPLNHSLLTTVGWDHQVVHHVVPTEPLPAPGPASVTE

How the values were obtained:
[1] = biological target: T1, PRMT5-MEP50 enzyme (Homo sapiens, UniProt O14744); assay: In vitro assay 1a: high throughput mass spectrometer assay of SAH formation, 10 nM enzyme, 60 min; assay type: biochemical; details: averaged values, PRMT5-MEP50, 10 nM enzyme
[2] = biological target: T1, PRMT5-MEP50 enzyme; assay: In vitro assay 1b: high throughput mass spectrometer assay of SAH formation, 1.25 nM enzyme, 120 min; assay type: biochemical; details: averaged values, PRMT5-MEP50, 1.25 nM enzyme
[3] = tested on: nuclear symmetric Arginine dimethylation in A549 cells; assay: PD assay (assay 2): inhibition of nuclear symmetric Arginine dimethylation (SYM10 immunohistochemistry), 48 h; assay type: cell-based; details: averaged values
Procedure: Experimental Procedure PD Assay (Assay 2)
A549 cells (ATCC, Cat #CCL-185) were cultured in Dulbecco's Modified Eagle's Medium (DMEM) (Sigma, Cat #D5796), supplemented with 10% Fetal Calf Serum (FCS) (HyClone™, Cat #SV30160.03), 100 mM Sodium Pyruvate (Sigma, Cat #S8636), 200 mM L-Glutamine (Sigma, Cat #G7513) and 50 mg/mL gentamycin (Gibco, Cat #15750-037).
Reagents used for buffers were purchased: Dulbecco's phosphate buffered saline (DPBS) without Ca/Mg (Sigma, Cat #D8537), phosphate buffered saline (PBS) 10× (Roche, Cat #11 666 789 001), Formalin solution 10% (Sigma, HT50-1-128-4L), Methanol 100% (Sigma, Cat #32213-2.5L), Triton X-100 (Acros, Cat #215680010), Bovine Serum Albumin (BSA) (Sigma, Cat #A2153), Alexa fluor 488 goat anti-rabbit antibody (Life Technologies, Cat #A11034), HCS CellMask Deep Red Stain (Life Technologies, Cat #H32721), Hoechst Stain (Life Technologies, Cat #33258), Anti-dimethyl-Arginine, sym (SYM10) antibody (Millipore, 07-412).
Immunohistochemistry Procedure
Cells were plated at 400 cells/40 μL/well in 384 well black μplates clear bottom (Perkin Elmer) and overnight incubated at 37° C., 5% CO2. […] 80 nL of the respective dilution of the compounds was added using the Labcyte POD 810 (Labcyte) reaching a final DMSO concentration of 0.2% in cell culture. After an incubation period of 48 h at 37° C. and 5% CO2, cells were fixed in 10% formalin solution for 15 min at room temperature and 20 min in ice-cold methanol, after which they were washed 3× in DPBS. Subsequently, the cells were blocked for 1 h in blocking buffer (PBS+1% BSA and 0.5% Triton X-100) and incubated overnight at 4° C. with the SYM10 antibody diluted 1/2000 in blocking buffer. The cells were washed 3× with washing buffer (PBS+0.1% Triton X-100) and incubated with the Alexa fluor 488 goat anti-rabbit antibody diluted 1/200 in blocking buffer for 1 h at room temperature. […]
IC50 and pIC50 (−log IC50) values were calculated using the appropriate software.
The pIC50 values in the Table below are averaged values (Co. No. means compound number; n.d. means not determined).

Row | pIC50 Assay 1a [1] | pIC50 Assay 1b [2] | pIC50 Assay 2 [3] | Structure (SMILES)
1 | 7.6 | 6.8 | 7.3 | Nc1ccc2ccc(CC[C@H]3C[C@@H](n4ccc5c(O)ncnc54)[C@H](O)[C@@H]3O)cc2n1
2 |  | 10.4 |  | Nc1nc2cc(CC[C@H]3C[C@@H](n4ccc5cnccc54)[C@H](O)[C@@H]3O)ccc2cc1Br
3 | 9.4 | 8.5 | 8.8 | Nc1ccc2ccc(CC[C@H]3O[C@@H](n4ccc5c(N)ncnc54)[C@H](O)[C@@H]3O)cc2n1
4 | 8.4 | 8.4 | 7.7 | CNc1ccc2ccc(CC[C@H]3C[C@@H](n4ccc5c(Cl)ncnc54)[C@H](O)[C@@H]3O)cc2n1
